Source: US20180230127A1 (PFIZER INC., priority 2015, published 2018)

The chains behind the UniProt entries cited, without tags or fusion partners. Residues count along the entry.
UniProt Q9NWZ3, 154-460 limits assumed: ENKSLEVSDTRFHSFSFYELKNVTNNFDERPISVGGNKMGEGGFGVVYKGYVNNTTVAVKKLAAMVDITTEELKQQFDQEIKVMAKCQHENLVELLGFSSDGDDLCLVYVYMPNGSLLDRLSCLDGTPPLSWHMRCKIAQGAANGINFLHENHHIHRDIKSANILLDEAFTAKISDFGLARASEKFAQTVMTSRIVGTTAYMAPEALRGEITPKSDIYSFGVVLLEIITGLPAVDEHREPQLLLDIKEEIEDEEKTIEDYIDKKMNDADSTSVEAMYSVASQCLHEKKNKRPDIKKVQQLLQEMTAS

Target: human IRAK4 kinase domain (aa 154-460) (Homo sapiens, UniProt Q9NWZ3)
Assay: IRAK4 Enzymatic DELFIA Assay
Details: read-out: IRAK4 IC50 nM; 0.6 mM ATP (KM); 114 pM IRAK4 kinase domain; 200 nM substrate; 5% DMSO; tested form: trifluoroacetate
Experimental: IRAK4 Enzymatic DELFIA Assay.
This is an in vitro assay to measure IRAK4 enzymatic activity utilizing the DELFIA (Dissociation-Enhanced Lanthanide Fluorescent Immunoassay, Perkin-Elmer) platform, with the human IRAK4 kinase domain (aa 154-460) construct to characterize IRAK4 inhibitor and control compounds at 0.6 mM ATP (KM). The final amount of enzyme in the assay is 114 pM IRAK4 kinase domain, final concentration of substrate is 200 nM, and final concentration of DMSO is 5%.
The test compound was solubilized in DMSO to a stock concentration of 30 mM. The dose response plates were prepared with a 2 mM primary compound concentration, and then diluted in DMSO in a four-fold series for a total of 10 data points. Compounds were prepared as a 20-fold multiple of the final in-assay concentration […]
100 μL of the reaction mixture was transferred to a streptavidin coated detection plate (EvenCoat Streptavidin Coated Plates, 96-Well, R&D Systems) and incubated for 30 minutes at room temperature. […] Then 100 μL per well of DELFIA Enhancement Solution were added to the plate and then read on an EnVision Model 2103 using a 340 nm excitation wavelength and a 665 nm emission detection.

`CC(C)Oc1cc2c(OC3CCN(C(=O)[C@@H](C)N)CC3)nccc2cc1C(N)=O` was tested. Which IC50 did it give?
The IC50 was 755 nM.
